The text below walks through data of patent US20040037843A1.

Read-outs that look alike come from different tables or passages of the source.

Conditions in all cases: remark: other sources report otherwise
The target in test [1] is HLA-A*0201 (human).
Test [2] deals with HLA-A*0202 (human).
Test [3] has as its target HLA-A*0203 (human).
Test [4] deals with HLA-A*0206 (human).
In test [5] the target is HLA-A*0201 (human). The source holds these as a separate data set.
Test [6] has as its target HLA-A*0202 (human). This is another data set of the same source.
Test [7] has as its target HLA-A*6802 (human).
Test [8] has as its target HLA-A*0201 (human). The test can be described thus: competition with 125I probe peptide on purified HLA, gel filtration. Background: SEC sorts molecules by how far they enter the pores of the column.
Test [9] concerns the target HLA-A*0203 (human). The description is as above.
The target of test [10] is HLA-A*6802 (human). The description is as above.
Test [11] has as its target HLA-A*0201 (human). The test can be described thus: competition with 125I-labeled probe peptide for purified HLA, gel filtration.
The target of test [12] is HLA-A*0202 (human). Kind of test: competition with 125I probe peptide on purified HLA, gel filtration.
The target of test [13] is HLA-A*0206 (human). The test is described as above.
Test [14] deals with HLA-A*0206 (human). Kind of test: competition with 125I-labelled standard peptide for purified HLA.
Test [15] deals with HLA-A*6802 (human). The test is described as above.
Test [16] concerns the target HLA-A*0206 (human). This is another data set of the same source.
In test [17] the target is HLA-A*0202 (human). The source holds these as a separate data set.
For test [18], the target named is HLA-A*0203 (human). The source holds these as a separate data set.
Test [19] addresses HLA-A*0206 (human). The source holds these as a separate data set.
The target in test [20] is HLA-A*6802 (human). The source holds these as a separate data set.
Test [21] deals with HLA-A*0201 (human). The test can be described thus: inhibition of 125I probe peptide binding to purified HLA, gel filtration.
Test [22] has as its target HLA-A*0202 (human). The test is described as above.
The target in test [23] is HLA-A*0203 (human). The test is described as above.
The target in test [24] is HLA-A*0206 (human). The test is described as above.
The target of test [25] is HLA-A*6802 (human). The description is as above.
The target in test [26] is HLA-A*0203 (human). The source holds these as a separate data set.
In test [27] the target is HLA-A*0206 (human). The source holds these as a separate data set.
Test [28] deals with HLA-A*6802 (human). This is another data set of the same source.
In test [29] the target is HLA-A*0201 (human). The test can be described thus: competition with 125I-labelled standard peptide for purified HLA.
Test [30] deals with HLA-A*0202 (human). The test is described as above.
Test [31] deals with HLA-A*0203 (human). Described as above.
The target of test [32] is HLA-A*0201 (human). The source holds these as a separate data set.
The target of test [33] is HLA-A*0202 (human). The source holds these as a separate data set.
Test [34] concerns the target HLA-A*0203 (human). The source holds these as a separate data set.
Test [35] has as its target HLA-A*0202 (human). The test can be described thus: competition with 125I-labeled probe peptide for purified HLA, gel filtration.
Test [36] has as its target HLA-A*0203 (human). The description is as above.
Test [37] deals with HLA-A*0201 (human). The source holds these as a separate data set.

Broadly, the IC50 is the point on the concentration scale where inhibition reaches its midpoint. High values mean weaker potency in that assay, low ones greater potency in that assay.

Take KVTEFMLCV [peptide 1418.21, HuK2.191.V9]: the IC50 with HLA-A*0201 (human) [1] was determined as 53 nM; with HLA-A*0202 (human) [2], 27 nM; with HLA-A*0203 (human) [3], 31 nM; with HLA-A*0206 (human) [4], 34 nM.
For LMLLRLSEPV [peptide 1418.43 (HuK2.121.V10)], the figures for the IC50 with HLA-A*0201 (human) [5], with HLA-A*0202 (human) [6] and in the test with HLA-A*6802 (human) [7] were 114 nM, 67 nM and 6150 nM, respectively.
Take ITLWQPIPV [Peptide 1418.25 … (PAP.135.T2)]: the IC50 in the test with HLA-A*0201 (human) [8] was 34 nM; with HLA-A*0203 (human) [9], 6.2 nM; with HLA-A*6802 (human) [10], 32 nM.
Consider HLLSNDMCV [peptide 1418.20, HuK2.177.V9], for which the figures for the IC50 with HLA-A*0201 (human) [1] and with HLA-A*0206 (human) [4] were 119 nM and 176 nM, respectively.
Consider RMMNDQLMFL [Peptide 1126.06], for which the concentration for half-maximal inhibition (IC50) in the test with HLA-A*0201 (human) [11] stood at 9.8 nM.
On to FMLCAGLWV [peptide 1418.22, HuK2.195.V9], for which the IC50 with HLA-A*0203 (human) [3] stood at 91 nM.
For IMYSAHDTTV [Peptide 1097.05 … (PAP.284)], the IC50 was found to be 217 nM with HLA-A*0201 (human) [8], 1.5 nM with HLA-A*0202 (human) [12], 14 nM with HLA-A*0203 (human) [9] and 411 nM in the test with HLA-A*0206 (human) [13].
Turning to DLMLLRLSEPV [peptide 1419.13, PSA.116.V11 / HuK2.120.V11], the IC50 with HLA-A*0206 (human) [14] was 148 nM; with HLA-A*6802 (human) [15] it was 2760 nM.
In the case of DLMLLRLSEPV [peptide 63.0109 (HuK2.120.V11)], the IC50 with HLA-A*0206 (human) [16] amounted to 148 nM; with HLA-A*6802 (human) [7], 2760 nM.
In the case of SLSLGFLFLL [peptide 1419.51, PAP.13], the IC50 in the test with HLA-A*0202 (human) [17] turned out to be 13 nM; with HLA-A*0203 (human) [18] it was 403 nM; with HLA-A*0206 (human) [19], 21 nM; in the test with HLA-A*6802 (human) [20] it was 8560 nM.
Regarding MLLRLSEPV [Peptide 1389.10 (PSA.118.V9)], the IC50 with HLA-A*0201 (human) [21] came out at 36 nM; in the test with HLA-A*0202 (human) [22], 36 nM; with HLA-A*0203 (human) [23], 46 nM; with HLA-A*0206 (human) [24], 638 nM; with HLA-A*6802 (human) [25], 421 nM.
Consider MLLRLSEPV [peptide 1389.10 (HuK2.122.V9)], for which the IC50 is 36 nM with HLA-A*0201 (human) [5]; 36 nM in the test with HLA-A*0202 (human) [6]; 46 nM in the test with HLA-A*0203 (human) [26]; 638 nM with HLA-A*0206 (human) [16]; 421 nM with HLA-A*6802 (human) [7].
On to GLHGQDLFGI [Peptide 1166.11 … (PAP.196)], for which the IC50 in the test with HLA-A*0201 (human) [8] was 26 nM; with HLA-A*0203 (human) [9] it was 2.5 nM; with HLA-A*0206 (human) [13], 315 nM.
Regarding DLMLLRLSEPV [Peptide 63.0109 (PSA.116.V11)], the values for the IC50 in the test with HLA-A*0206 (human) [24] and with HLA-A*6802 (human) [25] were 148 nM and 2760 nM, respectively.
Regarding GLHGQDLFGV [Peptide 1419.62 … (PAP.196.V10)], the IC50 with HLA-A*0202 (human) [12] stood at 2.3 nM; in the test with HLA-A*0203 (human) [9], 3.1 nM.
With DLMLLRLSEPV [Peptide 1419.13, HuK2.120.V11], the half-inhibitory concentration (IC50) with HLA-A*0206 (human) [27] was found to be 148 nM; in the test with HLA-A*6802 (human) [28] it was 2760 nM.
Turning to MLLRLSEPV [peptide 1389.10, PSA.118.V9 / HuK2.122.V9], the IC50 turned out to be 36 nM with HLA-A*0201 (human) [29]; 36 nM in the test with HLA-A*0202 (human) [30]; 46 nM in the test with HLA-A*0203 (human) [31]; 638 nM with HLA-A*0206 (human) [14]; 421 nM with HLA-A*6802 (human) [15].
Turning to MLLRLSEPV [Peptide 1389.10, HuK2.122.V9], the IC50 with HLA-A*0201 (human) [32] amounted to 36 nM; with HLA-A*0202 (human) [33], 36 nM; with HLA-A*0203 (human) [34], 46 nM; with HLA-A*0206 (human) [27], 638 nM; in the test with HLA-A*6802 (human) [28], 421 nM.
Regarding QLMFLERAFI [Peptide 1126.16], the IC50 with HLA-A*0201 (human) [11] stood at 98 nM; with HLA-A*0202 (human) [35], 36 nM.
Regarding PLVCNGVLQGV [peptide 1419.17, HuK2.216.V11], the IC50 came out at 27 nM with HLA-A*0201 (human) [1] and 19 nM with HLA-A*0203 (human) [3].
With VLAGGFFLL [Peptide 1126.10], the IC50 in the test with HLA-A*0201 (human) [11] was 39 nM; with HLA-A*0203 (human) [36], 33 nM.
ILLWQPIPV [Peptide 1044.04 … (PAP.135)]: the IC50 with HLA-A*0201 (human) [8] turned out to be 3.3 nM; in the test with HLA-A*0202 (human) [12], 39 nM; in the test with HLA-A*0203 (human) [9], 1.8 nM; in the test with HLA-A*0206 (human) [13], 71 nM.
On to LMLLRLSEPV [Peptide 1418.43 (PSA.117.V10)], for which the IC50 with HLA-A*0201 (human) [21] came to 114 nM; with HLA-A*0202 (human) [22] it was 67 nM; with HLA-A*6802 (human) [25], 6150 nM.
Turning to ITLWQPIPV [peptide 1418.25, PAP.135.T2], the IC50 was 34 nM with HLA-A*0201 (human) [37], 6.2 nM with HLA-A*0203 (human) [18] and 32 nM in the test with HLA-A*6802 (human) [20].
